Results from patent US20100261711A1, “SELECTIVE ANTICONVULSANT AGENTS AND THEIR USES” (WiSys Technology Foundation, priority 2009, published 2010).

What was measured:
Assay in all cases: Competitive binding assay, [3H]flunitrazepam
[1] = target: T1, GABAA/α3 (α3β3γ2 GABAA receptors) (Homo sapiens, UniProt P18507+P34903); details: Binding Affinity at GABAA/α3, αxβ3γ2, [3H]flunitrazepam competition
T1 construct: expressed in transfected cells

[2] = target: T2, GABAA/α5 (α5β3γ2 GABAA receptors) (Homo sapiens, UniProt P18507+P31644); details: Binding Affinity at GABAA/α5, αxβ3γ2, [3H]flunitrazepam competition
T2 construct: expressed in transfected cells

[3] = target: T3, GABAA/α1 (α1β3γ2 GABAA receptors) (Homo sapiens, UniProt P14867+P18507); details: Binding Affinity at GABAA/α1, αxβ3γ2, [3H]flunitrazepam competition
T3 construct: expressed in transfected cells

[4] = target: T4, GABAA/α2 (α2β3γ2 GABAA receptors) (Homo sapiens, UniProt P18507+P47869); details: Binding Affinity at GABAA/α2, αxβ3γ2, [3H]flunitrazepam competition
T4 construct: expressed in transfected cells

C#Cc1ccc2c(c1)C(c1ccccc1F)=NC(C)c1c(C(=O)OCC)ncn1-2 (single isomer, unassigned) [SH-053-2′F-S-CH3, 8-Ethynyl-6-(2-fluorophenyl)-4-methyl-4H-2,5,10b-triazabenzo[e]azulene-3-carboxylic acid ethyl ester]
Ki [1]: 1240 nM
Ki [2]: 16 nM and 19.2 nM
Ki [3]: 350 nM
Ki [4]: 141 nM

“And” between values parts separate entries of the source, which are not always exact repeats. Equal entries are not always repeated.
